Test results: patent publication EP0072987A1 (priority 1981, dated 1983)

Test system: Tumorart PS 2684
Test: Survival of tumour-bearing mice, NCI protocol 1200 (T/C)
Format: in vivo, Mäusen
Details: single injections on 9 days, tumour i.p. 10^6 Zellen/Maus

## CN1CCCOP1(=O)N(CC(Cl)CO)CC1CO1 (stereo not shown)
Verabreichte Dosis 25 mg/kg
  T/C-Wert: 157
Verabreichte Dosis 50 mg/kg
  T/C-Wert: 180
Verabreichte Dosis 100 mg/kg
  T/C-Wert: 300
Verabreichte Dosis 12,5 mg/kg
  T/C-Wert: 132
